In assay [1] the target is T1, CB1 receptors present at the periphery (Mus musculus, UniProt P47746).
T1 construct: from tissue; host or cells: whole mouse, in vivo (peripheral / gastrointestinal CB1)
The assay is described as follows: blocking of the inhibitory effect of CP55940 on the gastrointestinal transit. Format: in vivo. The settings on record: po route at 10 mg/kg, mice. The procedure: A percentage reversion of the effect of CP55940 greater than 50% at 10 mg/kg indicates a significant antagonist power at the level of the CB1 receptors present at the periphery.

Sequences of proteins named here, by UniProt entry; tags and fusion partners are left off.
UniProt P47746, whole entry: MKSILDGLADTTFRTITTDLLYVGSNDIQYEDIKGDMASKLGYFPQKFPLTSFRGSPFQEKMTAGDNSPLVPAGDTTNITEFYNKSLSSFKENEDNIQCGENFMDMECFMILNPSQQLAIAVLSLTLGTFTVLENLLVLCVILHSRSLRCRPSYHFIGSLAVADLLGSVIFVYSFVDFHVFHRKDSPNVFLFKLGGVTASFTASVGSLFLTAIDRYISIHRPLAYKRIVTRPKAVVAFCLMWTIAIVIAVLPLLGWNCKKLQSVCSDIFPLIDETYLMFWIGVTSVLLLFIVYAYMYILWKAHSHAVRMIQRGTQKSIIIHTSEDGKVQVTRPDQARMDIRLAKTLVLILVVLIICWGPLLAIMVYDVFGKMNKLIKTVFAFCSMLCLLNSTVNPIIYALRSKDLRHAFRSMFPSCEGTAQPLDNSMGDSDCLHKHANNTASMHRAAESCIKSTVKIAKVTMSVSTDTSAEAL

For assay [2], the target named is CB1 receptors present in the brain (Mus musculus, UniProt P47746). The assay is described as follows: Measurement (3): blocking of the hypothermic effect induced by CP55940. Format: in vivo. Set-up: from tissue; host or cells: whole animal, in vivo (brain CB1).

SMILES strings stand for the structures.

As a reminder, the ED50 is the midpoint of the dose-response relation. Consider `Cc1c(C(=O)NN2CCCCC2)nn(-c2ccc(Cl)cc2Cl)c1-c1ccc(Cl)cc1` [rimonabant, reference compound], for which the “% reversion of the effect of CP55940 on the GIT” value in assay [1] worked out at 100%. Besides, the “% reversion of the hypothermic effect of CP55940” value in assay [2] (iv route at 10 mg/kg) stood at 100% [effective dose 50. Besides, the ED50 in assay [2] (iv route, read-out: effective dose 50 (ED50), reversion of the hypothermic effect of CP55940) amounted to 0.3 mg/kg.
